High-throughput results: PubChem, Broad Institute
PGC1a acetyl inh: modulators of PGC1a acetylation; 350,000 tested, 0.17% active; U2OS PGC1a acetylation, AlphaScreen anti-acetyl-lysine; with virally co-expressed GCN5 acetyltransferase; inhibition, % at 15.6 µM;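 active means every replicate shows inhibition of at least 40%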;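 further: 0% = neutral control wells and 100% = positive control wells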
Yeast UUG start-1: alters start codon recognition fidelity in yeast; S. cerevisiae UUG-firefly luciferase reporter, luminescence/redox ratio; activity score, % at 18.7 µM; actives 0.13% (n = 350,000); AID 602363;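 active = replicate mean at a twofold rise or more, about +100% in these data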;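 also: firefly luciferase made from a UUG start codon reports start codon fidelity; reporter light over untreated wells divided by growth signal over untreated wells; some hits fall short of that in this replicate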
esBAF inh: blocks esBAF chromatin remodeling in mouse ES cells; 350,000 tested, 2% active; Bmi1-luciferase knock-in reporter, 24 h; 100% = twice the neutral-well signal; reporter increase, % at 12.5 µM; in the data active means activation above about 40%;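 further: 0% = median of the plate's neutral control wells and 100% = double that signal; a rise in the Bmi1 reporter signal indicates esBAF inhibition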
PglD DTNB: blocks C. jejuni PglD acetyltransferase activity. AID 602405. inhibition, % at 12.5 µM. purified PglD enzyme, DTNB colorimetric CoA detection. 360,000 tested, 0.098% active; in the data active means inhibition above about 16%, passing the limit was not always enough
C2C12 statin: suppressors of simvastatin-induced myotoxicity in C2C12 myotubes; ATP luminescence, 48 h; scaled: DMSO 0, geranylgeraniol control 100; rescue of ATP level, % at 7.49 µM; 330,000 tested, 0.78% active; AID 602340;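 active means mean ATP rescue above about 67%, or every replicate alone reaching that limit, limit read from the data, passing the limit was not always enough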;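 further: myotubes were challenged with 10 µM simvastatin during compound exposure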
E-sel inducer: induces E-selectin expression in human endothelial cells | HUVEC E-selectin immunofluorescence imaging; normalized: neutral wells 0, TNF-alpha wells 100 | activation, % at 7.58 µM | 260,000 tested, 0.37% active | AID 686992;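 active means mean E-selectin-positive cell signal at least 10% of the positive control, reached in at least 60% of replicates, without over 20% cell loss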
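Assay system: HUVEC, human umbilical vein endothelial cells / Amount: 3,000 HUVEC/well / Controls: TNF-alpha positive control, DMSO neutral control / Compound dosing: single concentration / Medium: EGM-2 over gelatin coat / Evaluation: percent E-selectin-positive cells / Signal: immunofluorescence imaging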
Yeast UUG start-2: modulators of start codon recognition fidelity in yeast; shares compounds with Yeast UUG start-1; S. cerevisiae UUG-start firefly luciferase, luminescence, 4 h; 100% means double the DMSO signal; activation, % at 38 µM; 540 tested, under 10 active; AID 652061;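 active means signal increase whose fitted curve reaches an absolute level of 40 at a concentration under 10 µM; inactive means activity opposite to the expected increase, or the rest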
PglD inh SP: blocks Campylobacter jejuni PglD acetyltransferase activity; 320 tested, under 10 active; inhibition, % at 20 µM; shares compounds with PglD DTNB; Purified C. jejuni PglD, DTNB absorbance 412 nm; AID 743156;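 active means mean inhibition across replicates of at least 20% with every single replicate also at 20% or more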;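 further: initial rate of CoA release by acetyl transfer from AcCoA to the UDP-4-amino sugar; 0% = median of neutral control wells and 100% = median of positive control wells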
An asterisk follows results filed as active; / = no result given. Most compounds without a hit are left out; they make up all but 2.8% or so of the library.

SMILES	PGC1a acetyl inh	Yeast UUG start-1	esBAF inh	PglD DTNB	C2C12 statin	E-sel inducer	others
Cc1ccc(C(=O)C2CN3CCC2CC3)cc1 (stereo unspecified)	-15	-8	-11	4	-6	/
COC(=O)[C@H]1[C@H](CO)[C@H]2Cn3c(ccc(C4=CCCC4)c3=O)[C@@H]1N2C(=O)C1CCCCC1	/	/	-1	/	8	0
O=C(Cc1ccncc1)N1CCCCN2[C@@H](CO)[C@@H](c3ccc(C#CC4(O)CCCC4)cc3)[C@@H]2C1	4	11	/	4	/	0
CC12CCC(O)CC1CCC1C2CCC2(C)C(C3=CC(=O)OC3)CCC12O (stereo unspecified)	80*	/	/	/	/	0
C[C@]12CC[C@H](O)C[C@H]1CC[C@@H]1[C@@H]2CC[C@]2(C)[C@@H](C3=CC(=O)OC3)CC[C@]12O	21	-3	1	3	11	0
CC(N)C(=O)NC1C2C(=C(O)CC(O)C2O)C(=O)OC1(C)C(Cl)Cl (stereo unspecified)	74*	/	/	/	/	0
COc1ccc(Oc2cc(NC(=O)c3nn(C)cc3[N+](=O)[O-])cc([N+](=O)[O-])c2)cc1	78*	3	-3	-1	97*	/
CNc1cc(Cl)c2nonc2c1[N+](=O)[O-]	68*	/	/	/	/	/
CC[C@H](C)[C@@H]1NC(=O)CNC(=O)c2csc(n2)[C@H](C(C)(C)O)OC(=O)C(C)(C)[C@H](CCCC(C)(Cl)Cl)OC(=O)c2csc1n2	60*	1	-32	-6	-72	0
CC(=O)c1cccc(OCC(O)CN2CC=C(c3ccccc3)CC2)c1 (stereo unspecified)	-9	10	9	-7	-7	1
Cc1cccc(OCC(O)CN2CC2)c1 (stereo unspecified)	0	143*	0	-2	9	3	Yeast UUG start-2=6
O=C(Cc1cccnc1)N1CCCCN2[C@H](CO)[C@@H](c3ccc(C#CC4CC4)cc3)[C@H]2C1	15	2	/	6	/	/
COc1ccccc1CN1CCCC(C(=O)c2ccccc2OC)C1 (stereo unspecified)	1	active	0	2	-15	/	Yeast UUG start-2=11
O=C(N/N=C/c1c(O)n(-c2ccccc2)c(=S)[nH]c1=O)c1ccccc1	-5	182*	/	-7	/	/	Yeast UUG start-2=15
COC(=O)[C@@H]1[C@@H](CO)[C@@H]2Cn3c(ccc(-c4ccc(F)cc4)c3=O)[C@H]1N2C(=O)c1ccccc1F	-5	/	1	1	2	0
CC(C)N1CCN(Cc2cccc3c2OCO3)CC1CCO (stereo unspecified)	2	-18	0	21*	-1	0	PglD inh SP=1
CC(C)N1CCN(Cc2cc3c(cc2Cl)OCO3)CC1CCO (stereo unspecified)	-5	-9	0	-3	13	3
COC(=O)[C@@H]1[C@@H](CO)[C@@H]2Cn3c(ccc(-c4cccnc4)c3=O)[C@H]1N2S(=O)(=O)c1ccccc1F	/	/	-5	0	-3	0
Clc1ccccc1CN1CCNCC1	12	-7	-5	22*	2	0	PglD inh SP=0

Structural class: the entries above containing a carbonyl joined to an NH by a bond outside any ring.
SMILES	PGC1a acetyl inh	Yeast UUG start-1	esBAF inh	PglD DTNB	C2C12 statin	E-sel inducer	others
CC(N)C(=O)NC1C2C(=C(O)CC(O)C2O)C(=O)OC1(C)C(Cl)Cl (stereo unspecified)	74*	/	/	/	/	0
COc1ccc(Oc2cc(NC(=O)c3nn(C)cc3[N+](=O)[O-])cc([N+](=O)[O-])c2)cc1	78*	3	-3	-1	97*	/
O=C(N/N=C/c1c(O)n(-c2ccccc2)c(=S)[nH]c1=O)c1ccccc1	-5	182*	/	-7	/	/	Yeast UUG start-2=15
